From ChEMBL document CHEMBL1154594, “Delta agonist hydroxy bioisosteres: the discovery of 3-((1-benzylpiperidin-4-yl){4-[(diethylamino)carbonyl]phenyl}amino)benzamide with improved delta agonist activity and in vitro metabolic stability” (Bioorg Med Chem Lett, 2009)

Amino acid sequences for entries named in this document (tags omitted).
UniProt P35372, whole entry: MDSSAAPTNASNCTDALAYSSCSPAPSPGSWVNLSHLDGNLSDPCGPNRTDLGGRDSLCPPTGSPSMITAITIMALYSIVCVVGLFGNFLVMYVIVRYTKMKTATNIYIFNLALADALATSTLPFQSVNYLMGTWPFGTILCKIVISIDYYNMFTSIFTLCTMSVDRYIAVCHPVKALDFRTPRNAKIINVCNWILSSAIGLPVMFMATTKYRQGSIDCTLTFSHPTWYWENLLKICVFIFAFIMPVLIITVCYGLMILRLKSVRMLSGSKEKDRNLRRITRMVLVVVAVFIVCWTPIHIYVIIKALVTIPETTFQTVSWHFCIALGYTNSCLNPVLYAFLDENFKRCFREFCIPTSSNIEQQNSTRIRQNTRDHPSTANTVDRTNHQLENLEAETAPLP
UniProt P41145, whole entry: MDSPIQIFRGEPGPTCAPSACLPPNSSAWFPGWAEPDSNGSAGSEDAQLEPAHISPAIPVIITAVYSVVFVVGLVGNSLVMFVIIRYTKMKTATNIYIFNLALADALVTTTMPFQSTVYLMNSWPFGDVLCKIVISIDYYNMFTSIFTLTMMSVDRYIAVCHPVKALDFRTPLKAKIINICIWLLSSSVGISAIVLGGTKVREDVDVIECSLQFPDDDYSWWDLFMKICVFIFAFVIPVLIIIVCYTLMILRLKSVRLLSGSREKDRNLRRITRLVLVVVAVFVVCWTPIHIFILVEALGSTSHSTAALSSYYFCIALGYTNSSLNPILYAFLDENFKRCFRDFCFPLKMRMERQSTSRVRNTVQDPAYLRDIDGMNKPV

Tests used:
Mu-type opioid receptor = Mu-type opioid receptor (Homo sapiens, UniProt P35372); assay: Displacement of [125I]FK33824 from human cloned mu opioid receptor
[1] = target: Kappa-type opioid receptor (Homo sapiens, UniProt P41145); assay: Displacement of [125I]D-pro10-dynorphin from human cloned kappa opioid receptor

Q: With `CCN(CC)C(=O)c1ccc(N(c2cccc(C(=O)OC)c2)C2CCN(Cc3ccccc3)CC2)cc1` as the molecule, how does the Ki (Mu-type opioid receptor) read?
A: 7.1 µM

Q: And the Ki [1]?
A: 5.54 µM

Q: `CCN(CC)C(=O)c1ccc(N(c2cccc(NC(=O)OC)c2)C2CCN(Cc3ccccc3)CC2)cc1` was tested. Which Ki (Mu-type opioid receptor) did it give?
A: 0.075 µM

Q: And the Ki [1]?
A: 0.576 µM

Q: With `CCN(CC)C(=O)c1ccc(N(c2cccc(C=O)c2)C2CCN(Cc3ccccc3)CC2)cc1` as the molecule, how does the Ki (Mu-type opioid receptor) read?
A: 1.19 µM

Q: And the Ki [1]?
A: 4.8 µM

Q: Which Ki (Mu-type opioid receptor) does the source give for `CCN(CC)C(=O)c1ccc(N(c2ccccc2C(N)=O)C2CCN(Cc3ccccc3)CC2)cc1` here?
A: 5.04 µM

Q: What about the Ki [1] of the same molecule?
A: > 10 µM

Q: Which Ki (Mu-type opioid receptor) does the source give for `CCN(CC)C(=O)c1ccc(N(c2cccc(N)c2)C2CCN(Cc3ccccc3)CC2)cc1` here?
A: 2.88 µM

Q: What about the Ki [1] of the same molecule?
A: 4.25 µM

Q: For `CCN(CC)C(=O)c1ccc(N(c2cccc(CO)c2)C2CCN(Cc3ccccc3)CC2)cc1`, which Ki (Mu-type opioid receptor) is on record?
A: 3.81 µM

Q: What about the Ki [1] of the same molecule?
A: 6.67 µM

Q: Which Ki (Mu-type opioid receptor) does the source give for `CCN(CC)C(=O)c1ccc(N(c2cccc(C(C)O)c2)C2CCN(Cc3ccccc3)CC2)cc1` (configuration not stated) here?
A: 3.75 µM

Q: And the Ki [1]?
A: 4.74 µM

Q: How did the Ki (Mu-type opioid receptor) turn out when `CCN(CC)C(=O)c1ccc(N(c2ccc(C(N)=O)cc2)C2CCN(Cc3ccccc3)CC2)cc1` was run?
A: 0.486 µM

Q: And the Ki [1]?
A: 6.18 µM

Q: Which Ki (Mu-type opioid receptor) does the source give for `CCN(CC)C(=O)c1ccc(N(c2cccc(C(=O)NC)c2)C2CCN(Cc3ccccc3)CC2)cc1` here?
A: 4.71 µM

Q: What about the Ki [1] of the same molecule?
A: > 10 µM

Q: Which results are given for `CCN(CC)C(=O)c1ccc(N(c2cccc(C(N)=O)c2)C2CCN(Cc3ccccc3)CC2)cc1`?
A: Ki (Mu-type opioid receptor): 0.282 µM; Ki [1]: 0.725 µM

Q: For `CCN(CC)C(=O)c1ccc(N(c2cccc(CN)c2)C2CCN(Cc3ccccc3)CC2)cc1`, which Ki (Mu-type opioid receptor) is on record?
A: 0.831 µM

Q: What about the Ki [1] of the same molecule?
A: 2.93 µM

Q: What does the source list for `CCN(CC)C(=O)c1ccc(N(c2cccc(C(C)=O)c2)C2CCN(Cc3ccccc3)CC2)cc1`?
A: Ki (Mu-type opioid receptor): 1.54 µM; Ki [1]: 4.54 µM

Q: Which results are given for `CCN(CC)C(=O)c1ccc(N(c2cccc(NC(C)=O)c2)C2CCN(Cc3ccccc3)CC2)cc1`?
A: Ki (Mu-type opioid receptor): 1.02 µM; Ki [1]: > 10 µM

Q: `CCN(CC)C(=O)c1ccc(N(c2cccc(CN(C)C)c2)C2CCN(Cc3ccccc3)CC2)cc1` was tested. Which Ki (Mu-type opioid receptor) did it give?
A: 4.16 µM

Q: And the Ki [1]?
A: 1.75 µM

Q: For `CCN(CC)C(=O)c1ccc(N(c2cccc(NS(C)(=O)=O)c2)C2CCN(Cc3ccccc3)CC2)cc1`, which Ki (Mu-type opioid receptor) is on record?
A: 0.462 µM

Q: And the Ki [1]?
A: 3.56 µM

Q: With `CCN(CC)C(=O)c1ccc(N(c2cccc(O)c2)C2CCN(Cc3ccccc3)CC2)cc1` as the molecule, how does the Ki (Mu-type opioid receptor) read?
A: 0.088 µM

Q: And the Ki [1]?
A: 0.744 µM
